Test results reported in patent US20090253669A1, “Substituted Sulfonamide Compounds” (GRUENENTHAL GmbH, priority 2008, published 2009).

Chains of the proteins cited; added tags and fusions are not shown.
UniProt P35372, whole entry, looked up: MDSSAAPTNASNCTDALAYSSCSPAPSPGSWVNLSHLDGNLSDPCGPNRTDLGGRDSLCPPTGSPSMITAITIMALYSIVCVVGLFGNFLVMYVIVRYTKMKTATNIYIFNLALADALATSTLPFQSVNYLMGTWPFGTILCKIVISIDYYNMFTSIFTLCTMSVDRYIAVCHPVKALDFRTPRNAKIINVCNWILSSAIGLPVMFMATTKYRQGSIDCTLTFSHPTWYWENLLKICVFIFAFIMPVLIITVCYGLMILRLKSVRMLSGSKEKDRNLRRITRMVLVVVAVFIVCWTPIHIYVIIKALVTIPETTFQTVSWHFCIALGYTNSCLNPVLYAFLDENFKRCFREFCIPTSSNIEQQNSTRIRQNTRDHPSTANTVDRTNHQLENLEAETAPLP

Target: human μ opiate receptor (Homo sapiens, UniProt P35372)
Assay: [3H]-naloxone displacement, SPA, membranes of CHO-K1 cells
Settings: 1 μM test substance; inhibition of specific binding of 1 nmol/l [3H]-naloxone

| SMILES | μ opioid receptor [1 μM] % inhibition [%] |
| --- | --- |
| COc1cc(C)c(S(=O)(=O)N2CCCC[C@H]2COCC(=O)N(C)CCC2CCC(c3ccccc3)(N3CCC3)CC2)c(C)c1 (stereo partly drawn) [Compound 201, (S)-N-(2-(4-(azetidin-1-yl)-4-phenylcyclohexyl)ethyl)-2-((1-(4-methoxy-2,6-dimethylphenylsulfonyl)piperidin-2-yl)methoxy)-N-methylacetamide] | 81 |
| COc1cc(C)c(S(=O)(=O)N2CCCCC2COCC(=O)NC2CCC(Cc3ccccc3)(N3CCCC3)CC2)c(C)c1 (centres unmarked) [Compound 149, N-(4-benzyl-4-(pyrrolidin-1-yl)cyclohexyl)-2-((1-(4-methoxy-2,6-dimethylphenylsulfonyl)piperidin-2-yl)methoxy)acetamide] | 73 |
| Cc1cc(S(=O)(=O)N2CCCCC2CCC(=O)N2CCC(Cc3ccccc3)(N3CCN(C)CC3)CC2)c(C)cc1Cl (centres unmarked) [Compound 130, 1-(4-benzyl-4-(4-methylpiperazin-1-yl)piperidin-1-yl)-3-(1-(4-chloro-2,5-dimethylphenylsulfonyl)piperidin-2-yl)propan-1-one] | 7 |
| COc1ccc(S(=O)(=O)N2CCCCC2CCOCC(=O)NC2CCC(c3ccccc3)(N(C)C)CC2)cc1 (centres unmarked) [Compound 19, N-(4-(dimethylamino)-4-phenylcyclohexyl)-2-(2-(1-(4-methoxyphenylsulfonyl)piperidin-2-yl)ethoxy)acetamide] | 96 |
| COc1cc(C)c(S(=O)(=O)N2CCCCC2COCC(=O)N(C)CCC2CCC(CCc3ccccc3)(N(C)C)CC2)c(C)c1 (centres unmarked) [Compound 73, N-(2-(4-(dimethylamino)-4-phenethylcyclohexyl)ethyl)-2-((1-(4-methoxy-2,6-dimethylphenylsulfonyl)piperidin-2-yl)methoxy)-N-methylacetamide] | 40 |
| COc1cc(C)c(S(=O)(=O)N(C)CCOCC(=O)N(C)CCCC2CCC(c3ccccc3)(N3CCCC3)CC2)c(C)c1 (centres unmarked) [Compound 83, 2-(2-(4-methoxy-N,2,6-trimethylphenylsulfonamido)ethoxy)-N-methyl-N-(3-(4-phenyl-4-(pyrrolidin-1-yl)cyclohexyl)propyl)acetamide] | 63 |
| COc1cc(C)c(S(=O)(=O)N2CCCC(COCC(=O)NC3CCC(c4ccccc4)(N4CCCC4)CC3)C2)c(C)c1 (centres unmarked) [Compound 187, 2-((1-(4-methoxy-2,6-dimethylphenylsulfonyl)piperidin-3-yl)methoxy)-N-(4-phenyl-4-(pyrrolidin-1-yl)cyclohexyl)acetamide] | 84 |
| COc1cc(C)c(S(=O)(=O)N(C)CCOCC(=O)N2CCC(Cc3ccccc3)(N3CCN(C)CC3)C2)c(C)c1 (centres unmarked) [Compound 197, N-(2-(2-(3-benzyl-3-(4-methylpiperazin-1-yl)pyrrolidin-1-yl)-2-oxoethoxy)ethyl)-4-methoxy-N,2,6-trimethylbenzenesulfonamide] | 13 |
| COc1cc(C)c(S(=O)(=O)N2CCC(OCC(=O)NC3CCC(Cc4ccccc4)(N4CCCC4)CC3)C2)c(C)c1 (centres unmarked) [Compound 166, N-(4-benzyl-4-(pyrrolidin-1-yl)cyclohexyl)-2-(1-(4-methoxy-2,6-dimethylphenylsulfonyl)pyrrolidin-3-yloxy)acetamide] | 30 |
| CNC1(c2ccncc2)CCN(C(=O)COCCN(C)S(=O)(=O)c2c(C)cc(OC)cc2C)CC1 [Compound 209, 4-Methoxy-N,2,6-trimethyl-N-(2-(2-(4-(methylamino)-4-(pyridin-4-yl)piperidin-1-yl)-2-oxoethoxy)ethyl)benzenesulfonamide] | 17 |
| COc1cc(C)c(S(=O)(=O)N2CCC(OCC(=O)NC3CCC(Cc4ccccc4C)(N(C)C)CC3)C2)c(C)c1 (centres unmarked) [Compound 14, N-(4-(dimethylamino)-4-(2-methylbenzyl)cyclohexyl)-2-(1-(4-methoxy-2,6-dimethylphenylsulfonyl)pyrrolidin-3-yloxy)acetamide] | 40 |
| CN(C)C1(c2ccccc2)CCC(NC(=O)CC2c3ccccc3CCN2S(=O)(=O)c2ccc(Cl)c(Cl)c2)CC1 (centres unmarked) [Compound 26, 2-(2-(3,4-dichlorophenylsulfonyl)-1,2,3,4-tetrahydroisoquinolin-1-yl)-N-(4-(dimethylamino)-4-phenylcyclohexyl)acetamide] | 102 |
| COc1cc(C)c(S(=O)(=O)N2CCC(OCC(=O)N(C)CC3CCC(CCc4ccccc4)(N4CCN(C)CC4)CC3)C2)c(C)c1 (centres unmarked) [Compound 177, 2-(1-(4-methoxy-2,6-dimethylphenylsulfonyl)pyrrolidin-3-yloxy)-N-methyl-N-((4-(4-methylpiperazin-1-yl)-4-phenethylcyclohexyl)methyl)acetamide] | 29 |
| CN1CCN(C2(c3ccccc3)CCN(C(=O)COCC3CCc4ccccc4N3S(=O)(=O)c3ccc(Cl)c(Cl)c3)CC2)CC1 (centres unmarked) [Compound 115, 2-((1-(3,4-dichlorophenylsulfonyl)-1,2,3,4-tetrahydroquinolin-2-yl)methoxy)-1-(4-(4-methylpiperazin-1-yl)-4-phenylpiperidin-1-yl)ethanone] | 9 |
| O=C(COC1CCN(S(=O)(=O)c2c(Cl)cc(Cl)cc2Cl)C1)NC1CCC(c2ccccc2)(N2CCCC2)CC1 (centres unmarked) [Compound 178, N-(4-phenyl-4-(pyrrolidin-1-yl)cyclohexyl)-2-(1-(2,4,6-trichlorophenylsulfonyl)pyrrolidin-3-yloxy)acetamide] | 92 |
| COc1cc(C)c(S(=O)(=O)N(C)CCOCC(=O)N2CCC(c3ccccc3)(N(C)C)CC2)c(C)c1 [Compound 54, N-(2-(2-(4-(dimethylamino)-4-phenylpiperidin-1-yl)-2-oxoethoxy)ethyl)-4-methoxy-N,2,6-trimethylbenzenesulfonamide] | 42 |
| CN(CCC1CCC(c2ccccc2)(N2CCCC2)CC1)C(=O)CC(NS(=O)(=O)c1ccc2ccccc2c1)c1ccccc1 (centres unmarked) [Compound 40, N-methyl-3-(naphthalene-2-sulfonamido)-3-phenyl-N-(2-(4-phenyl-4-(pyrrolidin-1-yl)cyclohexyl)ethyl)propanamide] | 88 |
| COc1cc(C)c(S(=O)(=O)N2CCCC2COCC(=O)N(C)CC2CCC(CCc3ccccc3)(N3CCN(C)CC3)CC2)c(C)c1 (centres unmarked) [Compound 148, 2-((1-(4-methoxy-2,6-dimethylphenylsulfonyl)pyrrolidin-2-yl)methoxy)-N-methyl-N-((4-(4-methylpiperazin-1-yl)-4-phenethylcyclohexyl)methyl)acetamide] | 18 |
| CN(CCCC1CCC(c2ccccc2)(N2CCCC2)CC1)C(=O)COCC1CCc2ccccc2N1S(=O)(=O)c1ccc(Cl)c(Cl)c1 (centres unmarked) [Compound 133, 2-((1-(3,4-dichlorophenylsulfonyl)-1,2,3,4-tetrahydroquinolin-2-yl)methoxy)-N-methyl-N-(3-(4-phenyl-4-(pyrrolidin-1-yl)cyclohexyl)propyl)acetamide] | 52 |
| COc1cc(C)c(S(=O)(=O)N(C)CCOCC(=O)N(C)CC2CCC(CCc3ccccc3)(N3CCCC3)CC2)c(C)c1 (centres unmarked) [Compound 47, 2-(2-(4-methoxy-N,2,6-trimethylphenylsulfonamido)ethoxy)-N-methyl-N-((4-phenethyl-4-(pyrrolidin-1-yl)cyclohexyl)methyl)acetamide] | 39 |
